Assay results reported in patent publication US4950650A, “Novel arginine vasopressin-binding peptides” (University of Florida, priority 1988, dated 1990).

Tested on: IL 2 help in IFN production
Assay: IL 2 helper signal for IFN production in helper cell depleted spleen cell cultures
Assay type: cell-based, mouse
Details: Expt 1, IL 2 3 U/ml, no binding peptide

**Q.** With “IL 2: recombinant human IL 2 (Hoffman-La Roche)” as the substance, how does the IFN read?
**A.** Its IFN is 300 ± 71 U/ml.
